Measured values from ChEMBL document CHEMBL1773004, “1-[(1-methyl-1H-imidazol-2-yl)methyl]-4-phenylpiperidines as mGluR2 positive allosteric modulators for the treatment of psychosis” (J Med Chem, 2011).

Protein sequences, listed by entry. Tags and fused reporters are not part of them.
UniProt P61169, whole entry: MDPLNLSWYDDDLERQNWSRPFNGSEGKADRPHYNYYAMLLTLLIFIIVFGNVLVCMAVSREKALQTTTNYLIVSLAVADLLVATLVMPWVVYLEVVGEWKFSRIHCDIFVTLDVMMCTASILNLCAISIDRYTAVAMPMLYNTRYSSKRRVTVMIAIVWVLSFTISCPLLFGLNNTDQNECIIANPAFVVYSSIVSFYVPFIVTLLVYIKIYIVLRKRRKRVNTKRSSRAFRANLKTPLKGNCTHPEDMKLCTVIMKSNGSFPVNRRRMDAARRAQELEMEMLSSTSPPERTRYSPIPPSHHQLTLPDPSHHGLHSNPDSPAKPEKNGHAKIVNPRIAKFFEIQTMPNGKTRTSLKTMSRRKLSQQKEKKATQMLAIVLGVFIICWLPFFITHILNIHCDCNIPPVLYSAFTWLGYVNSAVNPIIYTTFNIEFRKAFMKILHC

Target: D(2) dopamine receptor (Rattus norvegicus, UniProt P61169)
Experiment: Displacement of [3H]spiperone from dopamine D2 receptor in rat corpus striatum by beta plate scintillation counting
Type: tissue-based

Ki [µM]	Compound
0.091	Cn1c(CN2CCC(c3ccc(Cl)cc3F)CC2)nc2ccccc21
0.093	Cn1c(CN2CCC(c3ccccc3F)CC2)nc2ccccc21
